Only a part is listed here, and it is no random draw. Results filed as inconclusive are left out. Calls of active or inactive are those of the source. Unless noted, calls come from the whole dose curve; as a rule, active = well fitted curve in the direction sought with a large enough effect; inconclusive = small, poorly fitted or top-dose-only effect, or another doubt; inactive = no such curve, though single readings can be large; an effect the other way counts as inactive or inconclusive.
What was measured:
[1] = target: Ubiquitin carboxyl-terminal hydrolase 1 (Homo sapiens) (UniProt O94782); experiment: Inhibitors of USP1/UAF1: Pilot qHTS (AID 504865); conditions: purified USP1/UAF1, Ub-rhodamine cleavage fluorescence; at 114 µM (top of the series);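 note: rhodamine fluorescence freed from ubiquitin-rhodamine substrate followed over time; top concentration of the series differs between compounds; % is set by controls: 0 for no effect and ±100 for the full control effect; nearly all actives have a fitted effect of over 35% in size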
[2] = target: Luciferin 4-monooxygenase (Photinus pyralis) (UniProt P08659); experiment: Biochemical firefly luciferase enzyme assay for NPC (AID 624030);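 note: purified P. pyralis luciferase at 10 nM with luciferin and ATP substrate; 0% = DMSO and -100% = full luciferase inhibition by PTC124 control; nearly all actives have a fitted effect of over 70% in size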; conditions: purified P. pyralis luciferase, luminescence, 5 min; at 58.6 µM (top of the series) unless noted
Outline: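 Purified P. pyralis luciferase at 10 nM in 50 mM Tris Acetate (final), luminescence read within 5 minutes of enzyme addition to compounds. Activity normalised to PTC124 versus DMSO; concentration-response curves classed by r2, magnitude and activity.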

The chains behind the UniProt entries cited, without tags or fusion partners. Where a name states a change or a piece, a line headed by the entry shows the natural chain unless it says otherwise.
UniProt O94782: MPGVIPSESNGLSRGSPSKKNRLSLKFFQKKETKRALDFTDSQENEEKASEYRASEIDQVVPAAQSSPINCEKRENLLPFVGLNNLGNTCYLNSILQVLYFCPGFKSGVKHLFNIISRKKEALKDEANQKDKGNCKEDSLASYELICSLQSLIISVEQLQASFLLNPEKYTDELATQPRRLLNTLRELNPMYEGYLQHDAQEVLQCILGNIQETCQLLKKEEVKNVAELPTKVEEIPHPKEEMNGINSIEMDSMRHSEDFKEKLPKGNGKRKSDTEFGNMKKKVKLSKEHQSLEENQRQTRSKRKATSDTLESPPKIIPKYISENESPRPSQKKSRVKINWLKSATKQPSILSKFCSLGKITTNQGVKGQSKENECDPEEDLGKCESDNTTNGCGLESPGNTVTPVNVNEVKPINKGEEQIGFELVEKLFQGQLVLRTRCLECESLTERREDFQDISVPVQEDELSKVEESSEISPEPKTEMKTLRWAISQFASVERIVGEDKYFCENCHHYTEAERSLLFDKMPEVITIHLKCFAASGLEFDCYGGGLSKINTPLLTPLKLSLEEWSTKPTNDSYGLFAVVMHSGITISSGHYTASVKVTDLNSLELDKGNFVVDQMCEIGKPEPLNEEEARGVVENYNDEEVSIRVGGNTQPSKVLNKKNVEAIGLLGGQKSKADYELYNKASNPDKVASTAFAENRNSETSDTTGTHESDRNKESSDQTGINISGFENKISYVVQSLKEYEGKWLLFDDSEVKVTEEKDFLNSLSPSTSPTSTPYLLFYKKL
UniProt P08659, whole entry, looked up: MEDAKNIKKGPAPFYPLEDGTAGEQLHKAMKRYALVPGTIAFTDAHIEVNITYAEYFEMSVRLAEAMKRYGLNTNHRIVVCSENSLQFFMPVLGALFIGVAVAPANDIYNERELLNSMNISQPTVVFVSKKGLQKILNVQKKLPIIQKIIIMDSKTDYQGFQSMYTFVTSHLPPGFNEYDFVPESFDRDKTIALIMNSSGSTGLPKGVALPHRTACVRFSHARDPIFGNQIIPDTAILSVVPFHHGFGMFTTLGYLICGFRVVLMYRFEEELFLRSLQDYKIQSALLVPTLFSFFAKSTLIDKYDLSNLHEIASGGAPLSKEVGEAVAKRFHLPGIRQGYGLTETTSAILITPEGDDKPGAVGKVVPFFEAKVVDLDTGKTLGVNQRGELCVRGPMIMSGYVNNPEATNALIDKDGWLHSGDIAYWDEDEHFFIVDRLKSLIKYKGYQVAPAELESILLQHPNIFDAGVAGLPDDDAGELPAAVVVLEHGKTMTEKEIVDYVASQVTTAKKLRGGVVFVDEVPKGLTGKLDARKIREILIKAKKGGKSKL
UniProt P43220, whole entry, looked up: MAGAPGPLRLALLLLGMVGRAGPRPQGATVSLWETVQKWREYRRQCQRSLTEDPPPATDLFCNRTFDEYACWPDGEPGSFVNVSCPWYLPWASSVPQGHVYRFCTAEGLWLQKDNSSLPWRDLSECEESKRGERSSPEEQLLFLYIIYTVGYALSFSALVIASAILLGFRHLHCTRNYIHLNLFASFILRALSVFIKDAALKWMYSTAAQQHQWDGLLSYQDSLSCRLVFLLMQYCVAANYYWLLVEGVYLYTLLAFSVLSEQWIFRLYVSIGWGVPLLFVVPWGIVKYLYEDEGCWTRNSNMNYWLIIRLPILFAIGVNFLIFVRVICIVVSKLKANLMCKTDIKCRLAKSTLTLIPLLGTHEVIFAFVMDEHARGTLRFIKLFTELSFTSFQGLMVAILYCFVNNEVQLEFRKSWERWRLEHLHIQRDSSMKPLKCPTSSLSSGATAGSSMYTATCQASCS
UniProt P35557, whole entry, looked up: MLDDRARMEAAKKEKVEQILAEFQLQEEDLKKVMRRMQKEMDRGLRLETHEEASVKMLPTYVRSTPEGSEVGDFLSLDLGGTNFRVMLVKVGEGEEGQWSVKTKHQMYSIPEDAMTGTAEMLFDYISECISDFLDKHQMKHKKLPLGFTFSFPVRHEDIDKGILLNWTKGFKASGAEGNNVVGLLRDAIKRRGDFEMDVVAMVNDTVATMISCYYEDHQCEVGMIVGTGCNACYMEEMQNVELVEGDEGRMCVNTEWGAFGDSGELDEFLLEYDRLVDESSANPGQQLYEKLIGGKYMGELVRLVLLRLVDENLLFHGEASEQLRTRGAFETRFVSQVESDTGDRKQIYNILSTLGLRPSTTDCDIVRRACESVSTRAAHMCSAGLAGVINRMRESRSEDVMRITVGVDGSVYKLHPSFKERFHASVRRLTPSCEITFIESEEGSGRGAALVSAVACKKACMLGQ
UniProt Q14397: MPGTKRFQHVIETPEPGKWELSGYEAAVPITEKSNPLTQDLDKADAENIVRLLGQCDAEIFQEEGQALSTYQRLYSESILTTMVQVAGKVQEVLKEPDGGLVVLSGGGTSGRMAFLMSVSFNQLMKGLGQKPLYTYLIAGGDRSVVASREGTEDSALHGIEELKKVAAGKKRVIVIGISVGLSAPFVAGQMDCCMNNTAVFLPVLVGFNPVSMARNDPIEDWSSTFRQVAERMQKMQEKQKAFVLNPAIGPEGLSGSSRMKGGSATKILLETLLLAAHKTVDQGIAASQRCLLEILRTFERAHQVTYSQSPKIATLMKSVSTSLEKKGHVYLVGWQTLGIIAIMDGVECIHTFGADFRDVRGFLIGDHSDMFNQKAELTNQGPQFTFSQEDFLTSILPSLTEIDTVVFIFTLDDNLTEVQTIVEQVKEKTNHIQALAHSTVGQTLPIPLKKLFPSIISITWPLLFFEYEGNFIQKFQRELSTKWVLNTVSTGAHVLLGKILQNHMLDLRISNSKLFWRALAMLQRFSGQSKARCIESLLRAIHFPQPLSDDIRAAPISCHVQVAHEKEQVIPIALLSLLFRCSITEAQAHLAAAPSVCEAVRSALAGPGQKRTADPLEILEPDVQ
UniProt P16066: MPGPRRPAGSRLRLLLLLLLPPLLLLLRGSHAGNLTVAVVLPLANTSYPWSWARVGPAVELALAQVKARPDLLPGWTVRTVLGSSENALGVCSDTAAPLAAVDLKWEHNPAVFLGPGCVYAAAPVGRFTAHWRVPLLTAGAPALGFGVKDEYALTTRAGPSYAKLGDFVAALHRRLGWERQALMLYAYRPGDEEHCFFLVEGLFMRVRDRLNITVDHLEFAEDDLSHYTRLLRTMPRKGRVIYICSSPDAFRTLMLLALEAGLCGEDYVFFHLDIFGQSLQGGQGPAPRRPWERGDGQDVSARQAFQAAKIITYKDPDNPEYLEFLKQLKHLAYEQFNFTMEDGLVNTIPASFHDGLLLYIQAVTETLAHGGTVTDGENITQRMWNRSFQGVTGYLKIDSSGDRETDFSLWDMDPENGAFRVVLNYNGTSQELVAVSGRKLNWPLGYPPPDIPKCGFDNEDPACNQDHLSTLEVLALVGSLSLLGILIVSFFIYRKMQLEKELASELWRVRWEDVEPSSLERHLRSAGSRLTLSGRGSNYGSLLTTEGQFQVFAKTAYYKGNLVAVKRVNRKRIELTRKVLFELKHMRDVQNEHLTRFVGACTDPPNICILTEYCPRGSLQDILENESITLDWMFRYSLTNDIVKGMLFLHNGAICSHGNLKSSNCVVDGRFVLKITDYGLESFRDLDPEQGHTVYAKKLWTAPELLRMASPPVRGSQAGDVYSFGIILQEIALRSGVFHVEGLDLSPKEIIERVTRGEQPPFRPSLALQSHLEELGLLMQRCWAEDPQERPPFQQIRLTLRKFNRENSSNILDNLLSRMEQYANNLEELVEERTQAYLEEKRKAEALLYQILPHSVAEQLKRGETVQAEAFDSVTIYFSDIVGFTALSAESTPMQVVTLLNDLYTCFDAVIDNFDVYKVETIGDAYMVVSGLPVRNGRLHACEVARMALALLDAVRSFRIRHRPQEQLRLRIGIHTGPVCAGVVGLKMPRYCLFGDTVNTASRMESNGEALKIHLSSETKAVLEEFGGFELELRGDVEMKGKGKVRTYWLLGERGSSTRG
UniProt P20594: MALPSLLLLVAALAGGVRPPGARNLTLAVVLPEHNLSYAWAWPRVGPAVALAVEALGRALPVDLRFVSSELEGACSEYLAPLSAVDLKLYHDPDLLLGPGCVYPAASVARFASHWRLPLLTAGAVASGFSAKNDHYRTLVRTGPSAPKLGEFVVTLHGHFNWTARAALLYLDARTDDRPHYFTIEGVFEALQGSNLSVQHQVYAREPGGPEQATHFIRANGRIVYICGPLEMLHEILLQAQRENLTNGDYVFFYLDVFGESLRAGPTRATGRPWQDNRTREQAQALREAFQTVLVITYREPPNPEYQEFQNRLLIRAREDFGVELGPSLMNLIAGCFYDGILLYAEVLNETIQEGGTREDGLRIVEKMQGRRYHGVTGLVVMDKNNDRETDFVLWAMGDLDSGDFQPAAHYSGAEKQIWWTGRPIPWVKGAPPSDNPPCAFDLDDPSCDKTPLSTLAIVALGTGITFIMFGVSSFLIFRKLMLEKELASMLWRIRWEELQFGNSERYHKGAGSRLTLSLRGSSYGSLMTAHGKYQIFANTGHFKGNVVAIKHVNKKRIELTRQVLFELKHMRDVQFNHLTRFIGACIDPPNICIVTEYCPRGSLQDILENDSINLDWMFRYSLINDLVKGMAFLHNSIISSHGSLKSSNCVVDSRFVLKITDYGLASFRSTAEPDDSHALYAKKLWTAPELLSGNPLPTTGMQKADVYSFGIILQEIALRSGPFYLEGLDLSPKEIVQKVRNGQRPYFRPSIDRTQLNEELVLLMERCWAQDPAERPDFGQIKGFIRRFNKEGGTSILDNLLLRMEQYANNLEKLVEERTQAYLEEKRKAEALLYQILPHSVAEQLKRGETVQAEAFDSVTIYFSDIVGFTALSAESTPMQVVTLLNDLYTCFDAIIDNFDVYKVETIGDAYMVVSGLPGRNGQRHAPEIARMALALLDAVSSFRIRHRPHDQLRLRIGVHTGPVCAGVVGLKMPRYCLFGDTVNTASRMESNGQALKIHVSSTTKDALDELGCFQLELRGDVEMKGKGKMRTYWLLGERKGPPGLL

[3] = target: Glucagon-like peptide 1 receptor (Homo sapiens) (UniProt P43220); experiment: qHTS of GLP-1 Receptor Agonists: LOPAC Validation (AID 624148); conditions: GLP-1R agonist cell assay; at 46.1 µM (top of the series);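 note: 0% is about no effect; higher luminescence signal means agonism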
Outline: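 HEK293 cells stably co-expressing GLP-1R and a cAMP-responsive luciferase reporter, plated 12 hours before compound, then incubated 4-6 hr at 37 deg C. Luminescence read 12 min after detection reagent.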

[4] = qHTS of Nrf2 Activators: LOPAC Validation (AID 624149); conditions: Nrf2/ARE reporter cell assay; at 46.1 µM (top of the series); note: 0% is about no effect
Outline: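 Luminescence read-out of ARE-luciferase activation: AREc32_Fluc cells treated with compounds for 24 hr at 37 deg C, then lysed with Steady-Glo for 30 min at room temperature before reading.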

[5] = HTS Assay for Allosteric Antagonists of the Human D2 Dopamine Receptor: Hit Validation in HTRF (AID 624455); conditions: D2 receptor cells, HTRF cAMP read-out, antagonist mode; at 46.1 µM (top of the series);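 note: stable D1 dopamine receptor cell line scored for blocking the D1 response; % is set by controls: 0 for no effect and ±100 for the full control effect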
Outline: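 First, antagonism was screened by calcium flux in a force-coupled, inducible Hek293 Trex D2 line challenged with EC80 dopamine. Hits then went into an HTRF assay in cells stably expressing D1, testing inhibition of the D1 response.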

[6] = qHTS for compounds that reverse cellular toxicity of Amyloid beta (A-beta) peptide in yeast: LOPAC Validation Assay (AID 720559); conditions: yeast expressing A-beta; at 46.1 µM (top of the series);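 note: plate controls were DMSO for no effect and equimolar ferric chloride plus clioquinol rescue for full effect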
Outline: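 OD600 growth readout after 48 hr at 30 C; A-beta-toxic yeast plus pinned compounds in medium. Normalization: DMSO = negative, equimolar FeCl3 + clioquinol = positive.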

[7] = qHTS for Activators of Parkin Expression: LOPAC Validation Assay (NLuc Reporter) (AID 720572;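 note: 0% = DMSO and 100% = positive control compound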); conditions: Parkin promoter NanoLuc reporter cells, luminescence, percent of positive control, DMSO as zero; at 46.1 µM (top of the series)
Outline: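 Neuronal cells with a Parkin promoter-driven FLuc/NLuc coincidence reporter were treated 24 h at 37 C in 7-point dose response (LOPAC). NLuc luminescence read after FLuc; signals normalized to DMSO and positive control (100%).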

[8] = qHTS for Activators of Parkin Expression: LOPAC Validation Assay (FLuc Reporter) (AID 720573;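 note: 0% = DMSO and 100% = positive control compounds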); conditions: Cell line, PRKN promoter firefly luciferase reporter, vehicle wells = 0, positive control = 100%; at 46.1 µM (top of the series)
Outline: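 FLuc luminescence read-out from a neuronal line expressing a Parkin-promoter-driven coincidence reporter. Cells treated 24 h at 37 C, 5% CO2 with compounds at 7 concentrations; signal increase normalized to DMSO and positive control.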

[9] = target: T1, Hexokinase-4 (Homo sapiens) + Glucokinase regulatory protein (Homo sapiens) (UniProt P35557+Q14397); experiment: qHTS assay for inhibitors of recombinant human GCK-GKRP interaction: Diaphorase-coupled assay (AID 743205); conditions: G6PDH/diaphorase resorufin fluorescence; at 57.5 µM (top of the series)
Outline: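 Resorufin fluorescence (525/590 nm), read each minute over 30 min, reports GCK activity coupled via G6PDH and diaphorase. Reaction: 10 nM GST-GCK, 10 nM FLAG-GKRP, 5 mM glucose, 0.4 mM ATP, 0.15 mM NADP+, 0.1 mM resazurin.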

[10] = target: T1, Hexokinase-4 (Homo sapiens) + Glucokinase regulatory protein (Homo sapiens); experiment: qHTS assay for inhibitors of recombinant human GCK-GKRP interaction: ADP-Glo assay (AID 743206); conditions: ADP-Glo luminescence, 60 min, 0% = vehicle-only wells with enzyme present; at 76.9 µM (top of the series);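 note: plate controls were DMSO plus enzyme for no effect and no enzyme for full effect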
Outline: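 GST-GCK and FLAG-GKRP (15 nM each in the dispensed mix, with 2 uM S6P) react with 0.4 mM ATP and 5 mM glucose (final) in Hepes pH 7.6 for 60 min at room temperature. ADP is measured by ADP-Glo luminescence.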

[11] = target: T1, Hexokinase-4 (Homo sapiens) + Glucokinase regulatory protein (Homo sapiens); experiment: qHTS assay for inhibitors of recombinant human GCK-GKRP interaction: HTRF assay (AID 743207); conditions: recombinant GCK-GKRP HTRF binding, 60 min, with sorbitol-6-phosphate; at 57.5 µM (top of the series);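 note: 0% = DMSO with GCK present and -100% = DMSO wells lacking GCK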
Outline: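 HTRF read-out (ex 320 nm; 615/665 nm emission) after 60 min RT equilibration of 5 nM GST-GCK, 5 nM FLAG-GKRP, 2 uM S6P, compound and anti-FLAG/anti-GST detection antibodies; signal normalized between DMSO wells with and without GCK.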

[12] = qHTS Assay for Identifying Gametocytocidal Compounds (AID 743244);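 note: % is set by controls: 0 for no effect and ±100 for the full control effect; actives lower the fluorescent signal which means gametocytes are killed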; conditions: P. falciparum 3D7 stage III-V gametocytes, alamarBlue, 72 h; max response: hits give low values
[13] = Natriuretic polypeptide receptor (hNpr1) antagonism - Pilot counterscreen GloSensor control cell line (AID 1347045; calls by dose curve; note: % is set by controls: 0 for no effect and ±100 for the full control effect); conditions: GloSensor cAMP control cell line, luminescence counterscreen; at 38.3 µM (top of the series)
Outline: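 Luminescence was read before and 20 min after adding 50 uM SNP, which stimulates soluble guanylyl cyclase. The HEK293 cells expressing the GloSensor cGMP sensor had been preloaded with 2% reagent for 2 h and treated with compound.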

[14] = target: Atrial natriuretic peptide receptor 1 (Homo sapiens) (UniProt P16066); experiment: Natriuretic polypeptide receptor (hNpr1) antagonism - Pilot screen (AID 1347049; calls by dose curve;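 note: agonist-evoked cGMP luminescence read 20 min after hNppA addition; % is set by controls: 0 for no effect and ±100 for the full control effect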); conditions: hNpr1 cells, antagonist mode cGMP read-out; at 57.5 µM (top of the series)
Outline: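 HEK293 cells expressing hNpr1 and GloSensor cGMP luciferase, 1500/well, loaded with 2% GloSensor reagent 2 h, compound 30 min at room temperature; luminescence read before and 20 min after 0.1 nM hNppA stimulation.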

[15] = target: Atrial natriuretic peptide receptor 2 (Homo sapiens) (UniProt P20594); experiment: Natriuretic polypeptide receptor (hNpr2) antagonism - Pilot subtype selectivity assay (AID 1347050; calls by dose curve; note: % is set by controls: 0 for no effect and ±100 for the full control effect); conditions: NPR2-expressing cells, cGMP antagonist-mode read-out; at 38.3 µM (top of the series)
Outline: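 HEK293 cells expressing hNpr2 and a GloSensor cGMP luciferase sensor, 1500/well, preloaded 2 h with 2% GloSensor reagent, compound 30 min, then 1 nM hNppC for 20 min. Antagonism from luminescence after versus baseline pre-read; LOPAC in 1:5 titrations.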

CN(C(=O)Cc1ccc(Cl)c(Cl)c1)[C@@H]1CC[C@]2(CCCO2)C[C@H]1N1CCCC1
inactive: activity change, negative = inhibition [1] -3.07% | activity change, negative = inhibition [2] -1.66% | activation [3] -1.03% | activation [4] 0.908% | activity, negative = inhibition [5] -0.613% | growth rescue, positive = activation [6] -4.13% | activation [7] -4.1% | activation [8] -2.23% | activity change, positive = activation [9] -3.75% | activity, positive = activation [10] 4.58% | activity change, negative = inhibition [11] -3.56% | max response [12] 13.6% | activity change, negative = inhibition [13] 1.75% | activity change, negative = inhibition [14] 4.92% | activity change, negative = inhibition [15] -12.5%

Reference: PubChem BioAssay (NCATS)
